In US20220079950A1, “THERAPEUTIC COMBINATIONS AS ANTIDOTES FOR ORGANOPHOSPHATE EXPOSURE” (published 2022):

What was measured:
[1] = Screen of FDA approved drugs for change of RS194B levels (FIG. 13, 14); settings: in vivo
[2] = Protective Indices upon intramuscular and oral administration (FIG. 1); settings: i.m. versus p.o. administration
P-glycoprotein = test: RS194B tissue levels after administration of the P-glycoprotein inhibitor tariquidar (FIG. 11A-B); settings: mice

In the case of `CN(C)C(=N)N=C(N)N`, the “change in RS 194B levels in tissues and urine with co-administered FDA approved drug” value (from here on “change in RS 194B levels”) [1] is reported as “little change”.

For `O=C(O)c1cn(C2CC2)c2cc(N3CCNCC3)c(F)cc2c1=O`, the “change in RS 194B levels” value [1] was “increases”.

In the case of `CCl.ON=Cc1ccccn1`, the “oral bioavailability shown by Protective Indices” value [2] is reported as “lack thereof”.

With `COc1cc2c(cc1OC)CN(CCc1ccc(NC(=O)c3cc(OC)c(OC)cc3NC(=O)c3cnc4ccccc4c3)cc1)CC2` the “bile concentration of RS194B with tariquidar” value (P-glycoprotein) was “reductions”, the “kidney concentration of RS194B with tariquidar” value (P-glycoprotein) was “enhanced” and the “liver concentration of RS194B with tariquidar” value (P-glycoprotein) was “enhanced”. The “urine concentration of RS194B with tariquidar” value (P-glycoprotein) was “reductions” and the “plasma level of RS194B with tariquidar” value (P-glycoprotein; tariquidar IP 10 min prior, collected 15 or 10 min after RS194B, n=3) was “enhancement”.

In the case of `C[C@H]1COc2c(N3CCN(C)CC3)c(F)cc3c(=O)c(C(=O)O)cn1c23`, the “change in RS 194B levels” value [1] is reported as “increases”.
